The test system of this series is partial thickness burns. Set-up: species or system children. To be noted: in vivo. The source says:
It is presented in this example the result of an open, prospective, comparative, controlled trial with random distribution of cases, conducted at the Department of Pediatric Surgery in the Public General Hospital “San Juan de Dios”, of the Government of Guatemala, in the period from August 1985 to January 1986. This clinical research refers to an interventional study, to treat patients in a single center, in order to examine treatment variation and patient outcomes, including the effect of new management strategies, implementation of practice guidelines, and quality improvement initiatives. […] Assessment of burn size: by use the Lund and Browder chart for % Total Body Surface Area. The depth of a burn injury should be reassessed two to three days after the initial assessment, by the same clinician. Primary outcomes: time to complete wound healing and proportion of participants with completely healed wounds. Secondary outcomes: Incidence of adverse events; Hospital length of stay; Change in wound size or deeper conversion; Incidence of infection; and Cost. The burn team accomplishes all wound management. Initial treatment of the burn wound involves cleansing the wound and removes dirt and debris without damaging the burn wound. Ruptured blisters are removed with scissors. After wound cleansing, cover with a dressing or cream according to the previously established random selection. […]

As to sulfadiazine Argentic cream [SS], the “Deepening to more complex lesion, % of cases” value is given as 77%.

Source of the values: US20160346335A1, “Honey-based dressing for the treatment of wounds and burns” (priority 2013, published 2016).
